Experimental data as given in article PMC9124818 (Pharmacology Research & Perspectives, 2022).

Chains of the proteins cited; added tags and fusions are not shown. Residues count along the entry.
UniProt Q86VL8, 1-566 isoform Q86VL8-3: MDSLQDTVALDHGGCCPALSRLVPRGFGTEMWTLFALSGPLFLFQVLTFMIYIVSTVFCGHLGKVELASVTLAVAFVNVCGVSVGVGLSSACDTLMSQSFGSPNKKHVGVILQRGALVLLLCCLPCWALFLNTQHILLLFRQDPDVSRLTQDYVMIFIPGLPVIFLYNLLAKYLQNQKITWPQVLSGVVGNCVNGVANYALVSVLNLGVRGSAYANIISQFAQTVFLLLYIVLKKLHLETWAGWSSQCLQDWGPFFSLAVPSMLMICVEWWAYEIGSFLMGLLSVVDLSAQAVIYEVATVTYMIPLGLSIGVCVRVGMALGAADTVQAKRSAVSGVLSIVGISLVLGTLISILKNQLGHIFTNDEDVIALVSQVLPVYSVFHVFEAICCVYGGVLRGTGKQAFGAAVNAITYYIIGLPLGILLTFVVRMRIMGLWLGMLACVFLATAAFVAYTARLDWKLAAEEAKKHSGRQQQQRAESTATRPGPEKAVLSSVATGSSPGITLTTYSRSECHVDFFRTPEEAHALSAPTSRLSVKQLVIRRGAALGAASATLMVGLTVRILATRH

Key:
[1] = cited from earlier work
MATE1 = target: T1, MATE1 (Homo sapiens, UniProt Q96FL8); experiment: Transporter inhibition, uptake of [14C]-metformin in HEK293 cells; format: in vitro ADME; details: probe [14C]-metformin 10 μM
T1 construct: host or cells: HEK293
T1 sequence (Q96FL8 1-570): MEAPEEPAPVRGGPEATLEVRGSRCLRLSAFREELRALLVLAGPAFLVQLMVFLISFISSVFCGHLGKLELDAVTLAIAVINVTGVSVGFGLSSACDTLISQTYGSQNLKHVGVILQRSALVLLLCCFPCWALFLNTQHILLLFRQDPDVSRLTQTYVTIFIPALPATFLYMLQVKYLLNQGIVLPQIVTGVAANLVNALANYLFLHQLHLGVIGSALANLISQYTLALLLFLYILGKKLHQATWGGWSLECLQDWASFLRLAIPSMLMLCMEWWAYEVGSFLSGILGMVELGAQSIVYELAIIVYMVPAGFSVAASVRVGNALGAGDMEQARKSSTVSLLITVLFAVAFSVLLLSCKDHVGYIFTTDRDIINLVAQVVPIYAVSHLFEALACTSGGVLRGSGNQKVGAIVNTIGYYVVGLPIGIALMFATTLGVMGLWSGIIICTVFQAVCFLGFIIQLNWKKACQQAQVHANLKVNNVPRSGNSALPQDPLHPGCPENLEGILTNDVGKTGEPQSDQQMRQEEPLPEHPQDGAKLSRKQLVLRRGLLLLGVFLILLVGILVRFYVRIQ
Procedure: (§1) The test compound (FFA or nFFA) or the positive control substrate ([…], respectively) was added to the donor chamber. […] Cells were then washed, lysed with scintillation cocktail, and analyzed for the probe substrate with a MicroBeta scintillation counter (PerkinElmer, Hopkinton, MA). Transcellular transporter assay conditions are described in Supplemental Table 1. Calculation of IC50 values was based on bidirectional permeability of probe substrate with and without the inhibitor in MDCKII cells expressing BCRP and in Caco‐2 cells expressing P‐gp, and transporter‐dependent uptake of probe substrate in HEK293 cells expressing all other transporters (Supplemental Table 1).
(§2) The transporter-specific uptake of the probe substrate in cells was determined by subtracting the accumulation in the control cells from the accumulation in the transporter-expressing cells.

MATE2‐K = target: T2, MATE2‐K (Homo sapiens, UniProt Q86VL8); experiment: as above; format: in vitro ADME; details: probe [14C]-metformin 10 μM
T2 construct: host or cells: HEK293
Procedure: as §1, §2

Row | SMILES | Cmax, total ([1]; maximum plasma concentration, modeled (PopPK), 26 mg/day FFA base, 13 mg twice daily, ref Prescribing information: https://www.fintepla.com/) [ng/mL] | ka ([1]; ref Modeled (PopPK)) [h⁻¹] | IC50 (MATE1; IC50, HEK293) | IC50 (MATE2‐K) [µM] | IC50 (MATE1; HEK293, read-out: IC50) [µM]
1 | CCNC(C)Cc1cccc(C(F)(F)F)c1 (racemic) [FFA, (RS)‐ethyl(α‐methyl‐3‐trifluoromethylphenethyl)amine, reference compound] | 68.0 | 0.69 | 9.02 µM and 9 µM | – | –
2 | CC(N)Cc1cccc(C(F)(F)F)c1.Cl (centres unmarked) [nFFA, [1‐(3‐trifluoromethyl)phenyl]propan‐2‐amine hydrochloride] | – | – | – | > 50 | 4.6

“And” between values parts separate entries of the source, which are not always exact repeats. Equal values may be shown once. Read-outs that look alike come from different tables or passages of the source.
